# Ab-14 light chain CDR variants: yeast mating affinities

Values reported by Li et al. 2023, doi:10.1038/s41467-023-39022-2 (FLAb copy).

Antigen: PDVDLGDISGINAS, a 14-residue peptide of the SARS-CoV-2 spike HR2 region.

Ab-14 is the parent antibody, in scFv form: VH, then a (GGGGS)3 linker, then VL. The heavy chain is unchanged in all variants.
VH: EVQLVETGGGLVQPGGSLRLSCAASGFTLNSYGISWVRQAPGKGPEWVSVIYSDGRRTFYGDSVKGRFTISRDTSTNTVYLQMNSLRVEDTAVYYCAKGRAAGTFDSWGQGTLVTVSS
VL: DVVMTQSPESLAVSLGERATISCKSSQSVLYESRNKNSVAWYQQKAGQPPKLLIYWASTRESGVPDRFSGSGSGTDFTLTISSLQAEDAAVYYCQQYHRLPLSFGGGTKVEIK

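The starting antibody came from a phage panning campaign against this peptide. The variants were designed computationally from a first round of random CDR variants and then made and measured. Their group label is 14L_GP_Gen (GP: Gaussian process model; Gen: genetic algorithm; a sequence that several methods proposed may carry one label only). Affinity was read by AlphaSeq, a pooled yeast mating assay with surface-displayed partners. Mating (16 h, 30 °C) was followed by selection of diploids and sequencing of their barcodes. Each replicate has its own calibration line, from reference interactions of the BCL2 family. Each pool was mated in six replicate cultures.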

Each variant is given by its three light chain CDRs, as the data file delimits them; those of the parent are KSSQSVLYESRNKNSVA, WASTRES, QQYHRLPLS. Scale: log10 of Kd in nM, estimated from mating counts; low values are strong binders. Averages over replicates are reported, and they cover detected replicates only. Values of this round are not directly comparable with the first-round values of the same sequences. The authors' rule: three or more of the six replicates give a measured affinity, fewer mean a poor binder. Nonspecific signal, from three strains lacking the peptide, appeared in 4% of pairings of all light chain designs, centred on 2.64 (5% of these signals below 1.59); values are not corrected for it. Also given: how often the same scFv was detected with the empty control strains, with their mean in brackets.

| CDR-L1 | CDR-L2 | CDR-L3 | log10 Kd, replicates | mean log10 Kd (nM) | control signals |
|---|---|---|---|---|---|
| KLSQSDLYESRNKNNVA | GASTRES | QQYHRLPLS | -0.35 -0.39 -0.51 -0.50 -0.43 -0.24 | -0.40 | 2/18 (3.38) |
| KLDQSWLYESRNKNSVA | SASQRES | QQYHRLPLS | -0.11 -0.24 -0.05 -0.60 0.14 0.22 | -0.11 | 0/18 |
| KVSPSGLYESRNKNSVA | EASTRES | QQYHRLPLS | -0.19 -0.16 -0.26 -0.67 -0.54 -0.33 | -0.36 | 1/18 (1.54) |
| KVSQSVLYESRNKNQVA | EASTRES | QQYHRLPLS | 0.58 0.20 0.36 0.43 0.36 0.44 | 0.39 | 2/18 (3.35) |
| KLEWSVLYESRNKNSVA | NASTRES | QQYHRLPLS | -0.61 -0.56 -0.81 -0.77 -0.89 -0.44 | -0.68 | 0/18 |
| KFSQSYLYESRNKNSVA | NASTRCS | QQYHRLPLS | 1.00 0.87 0.72 0.96 1.07 1.48 | 1.01 | 0/18 |
| KLQQSVLYESRNKNNVA | AASTRES | QQYHRLPLS | -0.07 0.06 0.03 -0.10 0.00 0.35 | 0.04 | 1/18 (2.65) |
| KLSQSVLYESRVKNNVA | DASTRES | QQYHRLPLS | -0.08 -0.19 -0.30 -0.40 -0.30 -0.16 | -0.24 | 0/18 |
| KFQQSVLYESRNKNSVA | GASTRES | QQYHRLPLS | 0.00 -0.27 -0.33 -0.28 -0.35 -0.18 | -0.23 | 2/18 (3.49) |
| KVQQSHLYESRNKNSVA | EASTRES | QQYHRLPLS | -0.03 -0.16 -0.31 -0.49 -0.14 0.09 | -0.17 | 1/18 (2.76) |
| KLSQSALYESRNKNNVA | EASTRES | QQYHRLPLS | -0.31 -0.54 -0.47 -0.71 -0.64 -0.35 | -0.50 | 0/18 |
| KLQQSMLYESRNKNSVA | NASQRMS | QQYHRLPLS | 0.26 -0.41 -0.01 -0.08 -0.35 0.03 | -0.09 | 0/18 |
| KLSQSVDYESRMKNSVA | NASTRES | QQYHRLPLS | 0.09 0.01 0.02 -0.11 -0.19 0.17 | 0.00 | 0/18 |
| KVSQSEPYESRNKNSVA | EASTRES | QQYHRLPLS | -0.52 -0.41 -0.69 -0.57 -0.46 -0.21 | -0.48 | 0/18 |
| KLPQSQLYESRNKNSVA | NASTRCS | QQYHRLPLS | 0.18 -0.08 -0.03 -0.04 0.07 0.24 | 0.06 | 1/18 (2.45) |
| KLSQSVDYESRNKNSVA | HASTRES | QQYHRLPLS | 0.09 -0.06 -0.15 -0.24 -0.22 0.12 | -0.08 | 0/18 |
| KVQQSHLYESRNKNSVA | QASTRES | QQYHRLPLS | -0.07 -0.12 -0.15 -0.16 -0.20 -0.10 | -0.13 | 1/18 (3.18) |
| KVSQSDLYESRNKNAVA | EASTRES | QQYHRLPLS | -0.33 -0.36 -0.54 -0.37 -0.36 -0.31 | -0.38 | 1/18 (3.54) |
| KLSQSSLYESRMKNSVA | NASTRLS | QQYHRLPLS | 0.73 0.42 0.48 0.40 0.36 0.46 | 0.47 | 0/18 |
| KLSQSWGYESRNKNSVA | NASTRMS | QQYHRLPLS | -0.05 -0.02 -0.12 -0.15 -0.35 -0.13 | -0.14 | 1/18 (2.83) |
| KVSQSELYESRNKNSVA | QASQRES | QQYHRLPLS | -0.10 -0.19 -0.17 0.10 -0.37 -0.04 | -0.13 | 2/18 (2.18) |
| KLSQSHLYESRNKNSVA | NASYRES | QQYHRLPLS | -0.02 -0.10 -0.36 -0.51 -0.50 -0.18 | -0.28 | 0/18 |
| YVSQSVLYESRNKNSVA | NASTRES | QQYHRLPLS | 0.44 0.21 -0.03 -0.10 0.14 0.36 | 0.17 | 2/18 (2.89) |
| KLQQSWLYESRNKNSVA | NASQRLS | QQYHRLPLS | -0.59 -0.57 -0.58 -0.63 -0.77 -0.10 | -0.54 | 0/18 |
| KLQQSVLYESRVKNSVA | NASTRES | QQYHRLPLS | 0.41 0.18 0.10 0.16 0.24 0.22 | 0.22 | 0/18 |
| KLSQSVLYESRQKNSVA | NASTRES | QQYHRLPLS | -0.35 -0.53 -0.61 -0.73 -0.63 -0.41 | -0.54 | 0/18 |
| KISQSWLYESRNKNSVA | NASTRMS | QQYHRLPLS | -0.17 -0.27 -0.40 -0.59 -0.49 -0.32 | -0.38 | 0/18 |
| KLSQSWLYESRNKNSVA | HASTRLS | QQYHRLPLS | 1.19 0.17 1.02 0.67 0.84 1.98 | 0.98 | 0/18 |
| KFQQSWLYESRNKNSVA | NASQRLS | QQYHRLPLS | 0.17 -0.15 -0.08 -0.36 -0.17 -0.14 | -0.12 | 0/18 |
| KLQQSQLYESRNKNSVA | NASTRED | QQYHRLPLS | 0.63 0.51 0.40 0.66 0.47 0.46 | 0.52 | 1/18 (2.15) |
| KLMQSQLYESRNKNSVA | NASQRES | QQYHRLPLS | 0.08 -0.35 -0.19 -0.34 -0.45 -0.07 | -0.22 | 0/18 |
| KLSQSVPYESRNKNSVA | NASTRES | QDYHRLPLS | 0.38 0.47 0.33 0.46 0.62 0.13 | 0.40 | 0/18 |
| KVEQSVLYESRNKNSVA | NASTRES | QQYHRLPLS | -0.01 0.05 -0.27 -0.20 -0.13 -0.12 | -0.11 | 0/18 |
| KLMQSWLYESRNKNSVA | NASQRLS | QQYHRLPLS | 0.62 0.65 0.38 0.20 0.47 0.85 | 0.53 | 1/18 (2.98) |
| KFSQSVDYESRNKNSVA | DASTRES | QQYHRLPLS | -0.01 -0.18 -0.27 -0.53 -0.20 -0.21 | -0.23 | 0/18 |
| KLSQSEGYESRNKNSVA | EASTRES | QQYHRLPLS | 0.22 0.03 0.08 -0.14 -0.07 0.01 | 0.02 | 2/18 (3.08) |
| KLQQSHLYESRNKNSVA | NASTRLS | QQYHRLPLS | 0.23 -0.16 -0.01 -0.14 -0.21 -0.05 | -0.06 | 2/18 (3.09) |
| KLQQSHLYESRNKNSVA | QASTRES | QQYHRLPLS | 0.04 -0.06 -0.22 -0.23 -0.08 -0.01 | -0.09 | 2/18 (2.62) |
| KVSQSKLYESRNKNSVA | DASQRES | QQYHRLPLS | 0.83 0.88 0.77 0.28 0.87 0.67 | 0.72 | 0/18 |
| KLSQSELYESRNKNSVA | QASQRES | QQYHRLPLS | 0.58 0.34 0.42 0.34 0.50 0.47 | 0.44 | 1/18 (2.97) |
| KVSQSMLYESRNKNSVA | DASQRES | QQYHRLPLS | 0.28 0.18 0.37 0.01 0.38 0.31 | 0.25 | 1/18 (1.86) |
| KLSQSNLYESRNKNNVA | DASTRES | QQYHRLPLS | -0.38 -0.48 -0.51 -0.70 -0.51 -0.33 | -0.49 | 1/18 (4.09) |
| KLSQSVEYESRNKNNVA | EASTRES | QQYHRLPLS | -0.37 -0.41 -0.48 -0.40 -0.56 0.11 | -0.35 | 0/18 |
| KLSQSMLYESRNKNSVA | NGSTRES | QQYHRLPLS | -0.10 -0.42 -0.41 -0.35 -0.56 -0.27 | -0.35 | 0/18 |
| KFSQSVLYEDRNKNSVA | NASTRES | QQYHRLPLS | 0.60 0.18 0.82 0.57 0.31 0.80 | 0.54 | 1/18 (1.90) |
| KLQQSWLYESRNKNSVA | SASTRSS | QQYHRLPLS | 0.34 0.48 0.20 0.45 0.13 0.35 | 0.33 | 2/18 (1.88) |
| KCSQSVLYESRNKNNVA | DASTRES | QQYHRLPLS | -0.25 -0.34 -0.49 -0.36 -0.30 -0.09 | -0.31 | 1/18 (2.72) |
| KSQQSVPYESRNKNSVA | NASTRES | QQYHRLPLS | 0.43 0.31 0.33 0.52 0.56 0.76 | 0.48 | 0/18 |
| KVSQSVLYESRNKNSVA | SASTRES | QQYHRLPLS | 0.15 0.00 -0.12 -0.33 -0.07 0.09 | -0.05 | 1/18 (4.05) |